Antibody variant affinities, Ab-95 light chain, assay 2

From the AlphaSeq antibody data of Engelhart et al. 2022 (doi:10.1038/s41597-022-01779-4), copy in the FLAb collection.

The target is the same throughout: PDVDLGDISGINAS, from the HR2 region of SARS-CoV-2 spike.

The variants keep the heavy chain, the linker and the frameworks of Ab-95 (scFv order VH, the linker GGGGSGGGGSGGGGS, VL).
VH: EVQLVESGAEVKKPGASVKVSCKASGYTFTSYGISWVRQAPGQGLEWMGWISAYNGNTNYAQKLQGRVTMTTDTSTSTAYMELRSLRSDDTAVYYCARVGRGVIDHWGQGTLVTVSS
VL: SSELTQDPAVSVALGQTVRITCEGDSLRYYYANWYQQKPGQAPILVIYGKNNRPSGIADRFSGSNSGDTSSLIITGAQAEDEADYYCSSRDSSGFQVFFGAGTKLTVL

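Phage display of a naive human antibody library on the peptide gave the parent. Library AAYL52 holds single substitutions and randomly drawn double and triple substitutions in the CDRs. The assay is AlphaSeq: two haploid yeast populations carry antibody and antigen on their surface. The frequency of each diploid, read from paired DNA barcodes, reflects how well the two displayed proteins bind. Each replicate has its own calibration line, from reference interactions of the BCL2 family. Mating was done three times.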

Changes read parent residue, position, new residue, counted from the first residue of the VL shown.
This list gathers variants with a substitution at K50 (VL, numbered from residue 1).
The Kd shown is the geometric mean over detected replicates; a lower Kd is a better binder.
"no signal" means that the variant was in the library but no mating with the target was seen in any replicate; the authors take this as a sign of poor binding, and no number exists.
Nonspecific signal, from three strains lacking the peptide, appeared in 28% of pairings of library AAYL52, centred on 8.2 µM (5% of these signals below 800 nM); values are not corrected for it.

* G24F K50P F98P: 2.1 µM (3 of 3 replicates)
* K50I N51F D91E: no signal (0 of 3 replicates)
* Y31P K50L: 3.3 nM (3 of 3 replicates)
* K50N N51Y: 370 nM (3 of 3 replicates)
* K50L S92E G94M: 30 µM (3 of 3 replicates)
* Y30C K50Q S93H: 21 µM (1 of 3 replicates)
* D25R Y31W K50I: 3.2 µM (3 of 3 replicates)
* K50G N52T G94F: no signal (0 of 3 replicates)
* K50F P54T S93F: 25 µM (3 of 3 replicates)
* K50G S55A: 16 nM (3 of 3 replicates)
* K50A N52F S93I: 1.9 µM (2 of 3 replicates)
* K50M F98L: 660 nM (3 of 3 replicates)
* G24R K50S S55K: 4.3 µM (3 of 3 replicates)
* K50R N51M R53A: 3.4 µM (1 of 3 replicates)
* Y30P Y31V K50L: 110 nM (3 of 3 replicates)
* R28E K50R S89G: 630 nM (3 of 3 replicates)
* K50S R53E G94K: no signal (0 of 3 replicates)
* E23N K50R: 94 nM (3 of 3 replicates)
* G24A K50P N52G: 15 µM (1 of 3 replicates)
* N33G K50S R53T: 17 µM (2 of 3 replicates)
* K50I S55I F95M: 700 nM (3 of 3 replicates)
* K50I N52Y Q96R: 4.4 µM (3 of 3 replicates)
* G24S A32Y K50I: 4.3 µM (2 of 3 replicates)
* K50P S93R F95N: 210 nM (3 of 3 replicates)
* E23I K50D S93D: 300 nM (3 of 3 replicates)
* D25L K50S V97A: 510 nM (3 of 3 replicates)
* L27Y K50Q R90V: 51 nM (3 of 3 replicates)
* K50M P54S F95V: 7.3 µM (3 of 3 replicates)
* A32G K50Y S93E: no signal (0 of 3 replicates)
* A32K K50I D91K: 380 µM (1 of 3 replicates)
* E23K G24A K50G: 160 nM (3 of 3 replicates)
* K50L R53F S92N: no signal (0 of 3 replicates)
* Y30S K50F S93C: 100 nM (3 of 3 replicates)
* G49K K50Q F95M: 3.5 µM (2 of 3 replicates)
* A32V K50H S88L: no signal (0 of 3 replicates)
* K50W N52S P54S: 5.0 µM (2 of 3 replicates)
* K50M S55V F98K: 1.3 µM (3 of 3 replicates)
* S26C G49Y K50I: no signal (0 of 3 replicates)
* K50N S92L G94T: 350 nM (2 of 3 replicates)
* K50E: 28 nM (3 of 3 replicates)
* R28F K50C S55K: 870 nM (1 of 3 replicates)
* G24D K50I S55P: 3.5 µM (1 of 3 replicates)
* K50N N52S R90Q: 170 nM (3 of 3 replicates)
* K50L P54V Q96N: 14 µM (3 of 3 replicates)
* Y29I G49H K50Y: 92 µM (2 of 3 replicates)
* K50H D91G: 75 nM (3 of 3 replicates)
* N33W K50S S55C: 420 µM (1 of 3 replicates)